Data reported in patent US20260092070A1, “INHIBITORS OF CANINE JANUS KINASE AND USES THEREOF” (ANIMOL DISCOVERY, INC., priority 2023, published 2026).

By UniProt entry, the sequences of proteins in these tests, tags left out. Where a name states a change or a piece, a line headed by the entry shows the natural chain unless it says otherwise.
UniProt P23458: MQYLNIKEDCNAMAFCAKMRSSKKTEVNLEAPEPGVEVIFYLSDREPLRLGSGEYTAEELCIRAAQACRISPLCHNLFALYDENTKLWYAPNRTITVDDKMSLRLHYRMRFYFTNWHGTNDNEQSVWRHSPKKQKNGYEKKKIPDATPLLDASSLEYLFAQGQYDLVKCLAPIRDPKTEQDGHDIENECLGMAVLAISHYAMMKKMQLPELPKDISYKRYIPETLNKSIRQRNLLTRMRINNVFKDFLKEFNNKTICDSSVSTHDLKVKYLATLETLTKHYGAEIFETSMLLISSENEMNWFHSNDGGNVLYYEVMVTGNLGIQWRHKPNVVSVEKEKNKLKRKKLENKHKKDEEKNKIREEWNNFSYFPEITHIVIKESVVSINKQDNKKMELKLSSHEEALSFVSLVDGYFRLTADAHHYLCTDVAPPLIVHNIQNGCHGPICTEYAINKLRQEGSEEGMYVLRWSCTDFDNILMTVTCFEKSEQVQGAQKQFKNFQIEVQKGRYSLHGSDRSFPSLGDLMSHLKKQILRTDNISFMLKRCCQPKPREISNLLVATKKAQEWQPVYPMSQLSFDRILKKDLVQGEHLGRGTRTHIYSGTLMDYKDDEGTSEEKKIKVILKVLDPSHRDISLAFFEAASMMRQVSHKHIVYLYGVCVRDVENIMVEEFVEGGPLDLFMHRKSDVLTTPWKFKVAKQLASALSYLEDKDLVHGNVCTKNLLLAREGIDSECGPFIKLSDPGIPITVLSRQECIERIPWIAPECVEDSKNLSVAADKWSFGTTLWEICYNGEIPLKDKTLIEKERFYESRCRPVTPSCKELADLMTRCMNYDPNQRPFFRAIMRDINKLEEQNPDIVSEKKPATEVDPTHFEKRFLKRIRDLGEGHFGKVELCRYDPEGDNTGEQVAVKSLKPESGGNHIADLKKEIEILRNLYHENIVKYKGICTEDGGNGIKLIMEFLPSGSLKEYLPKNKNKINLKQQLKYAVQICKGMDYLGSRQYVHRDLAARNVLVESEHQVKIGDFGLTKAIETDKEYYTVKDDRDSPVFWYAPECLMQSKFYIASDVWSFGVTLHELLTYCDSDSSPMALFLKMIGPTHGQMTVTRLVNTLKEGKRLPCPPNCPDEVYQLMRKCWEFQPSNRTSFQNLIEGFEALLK

Target: JAK-1 (Homo sapiens, UniProt P23458)
Experiment: JAK enzymatic assay (Eurofins KinaseProfiler/IC50Profiler, radiometric), JAK-1
Details: for JAK1/JAK2 selectivity: selectivity IC50 ratio for JAK1 versus JAK2, human enzymes

**Q.** How did the JAK1/JAK2 selectivity turn out when `COc1cc(NC(=O)CN2CCN(c3ncnc4[nH]ccc34)CC2)ccc1S(=O)(=O)N(C)C` [Compound 1, 2-(4-(7H-pyrrolo[2,3-d]pyrimidin-4-yl)piperazin-1-yl)-N-(4-(N, N-dimethylsulfamoyl)-3-methoxyphenyl) acetamide] was run?
**A.** >20

**Q.** How did the JAK1/JAK2 selectivity turn out when `CN(C)S(=O)(=O)c1ccc(NC(=O)CN2CCN(c3ncnc4[nH]ccc34)CC2)cc1F` [Compound 5, 2-(4-(7H-pyrrolo[2,3-d]pyrimidin-4-yl)piperazin-1-yl)-N-(4-(N,N-dimethylsulfamoyl)-3-fluorophenyl)acetamide] was run?
**A.** >38

**Q.** `CN(C)S(=O)(=O)c1ccc(NC(=O)CN2CCN(c3ncnc4[nH]ccc34)CC2)cc1Cl` [Compound 6, 2-(4-(7H-pyrrolo[2,3-d]pyrimidin-4-yl)piperazin-1-yl)-N-(3-chloro-4-(N,N-dimethylsulfamoyl)phenyl)acetamide] was tested. Which IC50 did it give?
**A.** < 250 nM

**Q.** What about the JAK1/JAK2 selectivity of the same compound?
**A.** 62
